Earlier results, collected in US9457059B2, “Compositions and methods for treating renal failure” (La Jolla Pharmaceutical Company, priority 2013, dated 2016).

Tested on: patients with hepatorenal syndrome
Conditions: albumin given intravenously, plasma volume expansion

## albumin: albumin given intravenously for expansion of the plasma volume
  renal function: shown to improve renal function
